The results in this text go back to US7691374B2, “Method for increasing the efficacy of anti-tumor agents by anti-endoglin antibody” (Health Research, Inc., priority 2002, dated 2010).

In this assay the test system is MCF-7 human breast cancer tumors. Conditions: mouse, in vivo.

For `O=P1(N(CCCl)CCCl)NCCCO1` (stereo not shown) [CPA, cyclophosphamide], the tumor suppression entry was “effective for tumor suppression”.
